# According to patent US8242117B2, “5-membered heterocycle-based p38 kinase inhibitors” (Novartis AG, priority 2003, dated 2012):
# By UniProt entry, the sequences of proteins in these tests, tags left out.
# UniProt Q16539, whole entry: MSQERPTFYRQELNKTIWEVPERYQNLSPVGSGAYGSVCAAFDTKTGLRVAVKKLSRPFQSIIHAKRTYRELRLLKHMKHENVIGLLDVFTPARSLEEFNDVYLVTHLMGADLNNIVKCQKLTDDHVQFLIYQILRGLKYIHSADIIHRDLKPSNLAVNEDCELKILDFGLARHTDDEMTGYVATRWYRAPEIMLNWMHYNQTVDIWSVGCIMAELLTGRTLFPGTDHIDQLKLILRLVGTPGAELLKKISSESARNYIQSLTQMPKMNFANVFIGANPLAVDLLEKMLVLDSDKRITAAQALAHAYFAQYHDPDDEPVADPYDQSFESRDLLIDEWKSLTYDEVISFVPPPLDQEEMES
# Molecular target: p38α kinase (Homo sapiens, UniProt Q16539)
# Assay: p38α assay (ADP release coupled to NADH oxidation)
# Conditions: read-out: p38α IC50; 60 min preincubation, 0.15 mM ATP, 20 nM p38α kinase
# Procedure: cDNAs of human p38α and β were cloned by PCR. The α and β cDNAs were subcloned into DEST2 plasmid (Gateway, InVitrogen). His6-p38 fusion protein was expressed in E. coli and purified from bacterial lysates by affinity chromatography using Ni^+2-NTA-agarose. His6-p38 protein was activated by incubating with constitutively active MKK6. Active p38 was separated from MKK6 by affinity chromatography. Constitutively active MKK6 was generated in a manner similar to Raingeaud et al. [Mol. Cell. Biol., 1247-1255 (1996)].
# The p38α assay employed is based on measurement of ADP released in the reaction of interest through NADH oxidation obtained by coupling with pyruvate kinase and lactate dehydrogenase reactions. The assays were performed in 384-well UV-plates. The final volume was 25 μL prepared from the addition of 2.5 μL compound dissolved in 10% DMSO, 17.5 μL of assay buffer and 5 μL of ATP. […] Reaction rates were measured at 340 nm using SpectraMax plate-reading spectrophotometer for 10 min at 37° C. Inhibition data were analyzed by non-linear least-squares regression using SigmaPlot.
row,SMILES,IC50 [nM]
1,Cc1ccc(C(=O)NC2CC2)cc1-n1ncc(C(=O)Nc2ccccc2)c1N,< 1000
2,Cc1ccc(C(=O)NC2CC2)cc1-n1ncc(C(=O)NCC(C)(C)C)c1N,< 1000
